According to PubChem BioAssay AID540263 (National Center for Advancing Translational Sciences (NCATS), 2011):
Among all 340,000 compounds or so, about 100 (0.029%) were called active. Not shown: some 8% with an inconclusive outcome. Calls follow the shape of the full dose curve. The full list was thinned out, with actives kept by preference.

Amino acid sequences for entries named in this document (tags omitted).
UniProt Q14974, whole entry, looked up: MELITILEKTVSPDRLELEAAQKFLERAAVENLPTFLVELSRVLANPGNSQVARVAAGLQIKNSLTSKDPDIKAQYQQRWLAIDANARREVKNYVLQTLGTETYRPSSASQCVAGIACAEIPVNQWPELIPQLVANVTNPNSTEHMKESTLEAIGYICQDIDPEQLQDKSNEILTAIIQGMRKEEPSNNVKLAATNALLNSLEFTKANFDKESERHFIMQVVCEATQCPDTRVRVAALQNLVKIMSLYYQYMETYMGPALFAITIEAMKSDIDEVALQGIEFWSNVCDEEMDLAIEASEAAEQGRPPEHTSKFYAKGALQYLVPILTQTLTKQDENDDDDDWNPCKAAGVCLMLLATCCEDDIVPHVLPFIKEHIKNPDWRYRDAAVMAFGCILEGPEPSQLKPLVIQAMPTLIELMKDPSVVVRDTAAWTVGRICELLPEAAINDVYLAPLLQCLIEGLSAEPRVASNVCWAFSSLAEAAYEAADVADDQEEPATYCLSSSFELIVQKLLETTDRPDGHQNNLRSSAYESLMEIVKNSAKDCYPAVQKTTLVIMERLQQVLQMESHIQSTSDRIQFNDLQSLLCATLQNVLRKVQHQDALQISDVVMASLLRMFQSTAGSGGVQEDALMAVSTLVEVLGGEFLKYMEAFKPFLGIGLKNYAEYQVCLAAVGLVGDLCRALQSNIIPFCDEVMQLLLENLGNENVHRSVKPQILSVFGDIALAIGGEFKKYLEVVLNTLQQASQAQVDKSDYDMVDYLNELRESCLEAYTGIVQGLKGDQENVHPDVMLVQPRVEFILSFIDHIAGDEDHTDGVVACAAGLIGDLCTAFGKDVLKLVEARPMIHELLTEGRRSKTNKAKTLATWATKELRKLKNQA

Target: Importin subunit beta-1 (Homo sapiens) (UniProt Q14974)
Experiment: qHTS Assay for Inhibitors of Rango (Ran-regulated importin-beta cargo) - Importin beta complex formation; also: nearly all actives have a fitted effect of over 15% in size;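 as to inhibition of complex formation: 0% = DMSO wells and 100% = buffer wells lacking importin beta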
Details: Rango CFP/YFP FRET sensor + importin beta, 45 min; series mostly up to 92.2 µM; inhibition of complex formation: at the top concentration
Description: NIH Molecular Libraries Probe Production Centers Network [MLPCN] NIH Chemical Genomics Center [NCGC] MLPCN Grant: R03 MH090808-01A1 Assay Submitter (PI): Petr Kalab NCGC Assay Overview: The small GTPase Ran regulates transport of macromolecules between the nucleus and the cytoplasm (nuclear transport) and has important functions in mitotic spindle assembly, nuclear envelope (NE) formation and nuclear pore complex (NPC) assembly. RanGTP gradient is thought to promote spindle assembly by providing a spatial clue to microtubule nucleation and Aurora A activation. Because the localized release and binding of importin alpha cargo relays this spatial clue to SAFs, inhibitors of the Rango - importin beta complex can then be used in further understanding their role in cell cycle specifically in mitosis progression. […] Activation of Aurora A has been linked to different types of cancer and a number of Aurora kinase inhibitors are being developed as potential canter therapeutics therefore, identified inhibitors of this complex could be developed into potential anti-mitotic probes for cancer treatment. Purified recombinant proteins Rango and importin beta were provided by the assay submitter. The assay used a fluorescence resonance energy transfer (FRET) Rango biosensor that contains the IBB of human snurportin 1 flanked by yellow fluorescent protein (EYFP) at the amino terminus and cerulean CFP10 at the carboxy terminus. […] Inhibitors will therefore be identified based on the ability to interfere with the FRET signal decrease. DMSO treated and no importin beta (buffer only) wells were used as negative and positive controls respectively. FRET readings were obtained at two time points. FRET reading prior to importin beta addition (pre-read) were used flag potential compound interference; FRET reading after importin beta addition (post-read) were used to identify inhibitors using the FRET ratio parameter.
NCGC Assay Protocol Summary: Two and a half uL/well of Rango-buffer solution (50 nM Rango, 1x PBS, 1mM DTT, 0.02% Tween-20, 0.1% BSA final concentrations) was dispensed into 1536-well assay plates (Greiner, solid black medium-binding plates) with Aurora Discovery BioRAPTR Flying Reagent Dispenser (FRD; Beckton-Dickenson). Compound solution (23 nL) was transferred to the assay plate using Kalypsys pin tool equipped with a 1536-pin tool and incubated at room temperature for 5 min followed by a FRET pre-read using the PerkinElmer Envision plate reader. Two and a half uL/well of Importin beta - buffer solution (0.125 microM importin beta, 1x PBS, 1mM DTT, 0.02% Tween-20, 0.1% BSA final concentrations) were then added and incubated at room temperature giving a final reaction volume of 5uL. After 45min FRET post-read was obtained via the Envision plate reader using the same optics and settings as the pre-read (CFP/YFP optimized dual optical module D450/D505; excitation mirror CFP 430/24 nm; and emission filters CFP 486/10 nm and YFP 530/10 nm).
Potency is read from the fitted curve at half-maximal effect; tags tell the direction and shape of the fitted curve.

Inhibition of complex formation, inactive:
CC(C)=CCc1ccc(O)c(=O)cc1C(C)C -0.975%
O=C(Nc1ccc2ccccc2c1[N+](=O)[O-])c1ccccc1 3.45%
COc1ccc(Cl)cc1C=CC=NNC(=O)c1ccncc1 4.63%
CC(C)(C)OC(=O)N1CCC(C(=O)Nc2cccc(C(=O)NCCc3ccccc3)c2)CC1 1.14%
COC1=CC(=O)OC(C)(c2ccccc2)C1 (centres undefined) -1.43%
Cc1ccc(Nc2c(O)nc[nH]c2=O)cc1C -7.42%
CCCN(CC(=O)Nc1ccccc1C)C(=O)c1ccc(OCC(=O)N2CCOCC2)c(OCC)c1 -0.312%
COc1ccc(-c2ccc3c(c2)[C@@H]2C[C@H](N(C)S(=O)(=O)c4ccccc4)[C@H]([C@H](C)O)C(=O)N2CC3)cc1 -1.31%
CC1(C)N=C(N)NC(Nc2ccc(Cl)cc2)=N1 2.24%
CN(C(=O)c1cccc(NC(=O)Cc2ccc(NC(=O)C3CCN(C(=O)C4CCCCC4)CC3)cc2)c1)C1CCC1 -2.04%
CC(C)(C)c1nnc2sc(SCC(O)=C(C#N)c3nc4ccccc4[nH]3)nn2c1=O 0.14%
Cc1ccc(S(=O)(=O)N2CCN(C(=O)c3cc(S(=O)(=O)N4CCOCC4)ccc3F)CC2)cc1 -3.27%
Cc1nn(-c2ncccn2)c2c1C(=O)CC(C)(C)C2Br (centres undefined) -3.68%
CCN(CC(=O)Nc1c(F)cccc1F)C(=O)Cc1cccs1 -5.32%
NC(=O)c1ccc(N2CCCC2)nc1 0.637%
COc1cc2[nH]c(O)c(C=O)c2cc1OC -0.216%
CC/C(=C\c1ccc(Cl)cc1)c1ccncc1 0.876%
COc1ccc(Cl)cc1C=CC=Nc1ccc(S(N)(=O)=O)cc1 -2.29%
COc1ccc(CCNC(=O)c2ccc(NC(=O)CC3SC(N4CCCCC4)=NC3=O)cc2)cc1OC (centres undefined) -3.12%
CSCCC(NC(=O)COc1ccccc1)C(=O)N1CCN(c2cccc(C(F)(F)F)c2)CC1 (centres undefined) 4.24%
CCCCN1CC(COc2ccccc2)Oc2cccc(F)c2S1(=O)=O (centres undefined) 2.87%
O=C(NN=Cc1ccccc1)c1ccccc1 -2.28%
O=C(Nc1c(Br)cc2c(c1Br)Cc1cc([N+](=O)[O-])ccc1-2)C(Cl)Cl -0.563%
CC(=O)OC1CCC2C3CCC4=C(CC(F)C(=O)C4)C3CCC12C (centres undefined) -1.03%
O=[N+]([O-])c1ccc(COc2ccccc2CN2CCOCC2)cc1 3.71%
COc1cccc(CC(=NO)c2cccc(OC)c2)c1 -0.088%
NC(=O)C1(Nc2ccc(-c3ccccc3)cc2)CCCC1 0.958%
O=C(O)C(=Cc1ccccc1[N+](=O)[O-])c1ccccc1 -0.207%
CCOC(=O)c1ccccc1NC(=O)CSc1nc2c(sc(=S)n2CC)c(=O)[nH]1 0.302%
O=C(CCCCCCCC(=O)N1CCCCC1)N1CCCCC1 -2.28%
Nc1cc2c(cc1Br)-c1ccc(F)cc1C2=O -2.11%
O=C1NC(c2ccccc2)Cc2ccncc21 (centres undefined) 0.404%
Cc1ccc(OCCNC(=O)c2cccc(S(=O)(=O)N3CCN(Cc4ccccc4)CC3)c2)cc1 3.25%
O=C1CC(c2ccccc2)C(c2ccccc2)=NN1 (centres undefined) -1.44%
Nc1ccc2c(c1)C(=Cc1cccnc1)c1ccccc1-2 -0.161%
Oc1ccc(-c2nc3ccccc3nc2-c2ccc(O)cc2O)c(O)c1 1.75%
O=C(Nc1ccccc1)Oc1cccc2cccnc12 -0.849%
O=[N+]([O-])c1ccc(NS(=O)(=O)c2ccccc2)c(Cl)c1 -1.29%
O=C(Cc1ccc(Cl)cc1)c1ccccc1 3.5%
O=C1C(=O)N(c2ccccc2)C(c2ccccc2)C1c1ccccc1 (centres undefined) 2.65%
Cc1cc([N+](=O)[O-])ccc1NS(=O)(=O)c1ccccc1 2.79%
O=C(c1ccc2c(c1)C(=O)N(Cc1ccncc1)C2=O)N1CCN(S(=O)(=O)c2ccc(OC(F)(F)F)cc2)CC1 5.12%
O=S(=O)(Cc1ccc(Cl)cc1Cl)c1ccc(Cl)cc1 -2.04%
Cc1c(NS(=O)(=O)c2cccc(C(=O)Nc3ccc(SC(F)F)cc3)c2)c(=O)n(-c2ccccc2)n1C -1.93%
C[n+]1cccc(C(=O)O)c1 8.24%
CCCCN(C(=O)c1cccc(N2C(=O)c3ccccc3C2=O)c1)c1c(N)n(CCCC)c(=O)[nH]c1=O -5.63%
CSCCC(NS(=O)(=O)c1ccc(C)cc1)C(=O)N(C)CC(=O)Nc1ccccc1Br (centres undefined) -2.58%
COc1ccccc1NC(=O)N(O)C1(C#N)CCCCC1 6.65%
O=C(Nc1c[nH]c(=O)[nH]c1=O)OCc1ccccc1 -3.52%
COc1cc2c(cc1OC)C(Cc1cc(OC)c(OC)cc1[N+](=O)[O-])=NCC2 -4.04%
CN(O)C(=S)c1ccccc1 0.436%
Cc1ccc(S(=O)(=O)c2cc3c(=O)n4cccc(C)c4nc3n(CCc3ccccc3)c2=N)cc1C -0.419%
O=C1OC(Oc2ccc(Br)cc2)(c2ccccc2)c2ccccc21 (centres undefined) 4.41%
N#CC1(Nc2ccc(-c3ccc(Cl)cc3)cc2)CCCC1 -0.935%
C#CCOCCOCCOCCNc1nc(N2CCN(C(=O)Cn3cc(CCO)nn3)CC2)nc(N2CCN(C(=O)[C@H](CCCCN)n3cc(CCCC)nn3)CC2)n1 2.5%
O=S1(=O)CCOC[C@H](Cc2ccccc2)N1Cc1ccccc1Br 1.72%
Cc1ccc(Oc2nc(-c3ccccn3)nc3ccccc23)cc1 1.95%
Cc1nc2ccccc2c(C(=O)O)c1-c1ccccn1 -3.52%
COc1cc2c(cc1CNC[C@H]1O[C@@H](n3cnc(C(N)=O)n3)[C@H](O)[C@@H]1O)OCO2 0.344%
NC1=NOC(=O)C1C1CCCCC1 (centres undefined) 2.74%
NC(=S)NN=C1CCCC(C(F)(F)F)C1 (centres undefined) 0.299%
O=C(OC12CC3CC(CC(C3)C1)C2)c1ccc(NCc2cc(O)ccc2O)cc1 0.607%
O=C(O)c1ccc([N+](=O)[O-])cc1Sc1ccsc1 -1.6%
CN(CCc1ccccc1)C(=O)c1cccc(NC(=O)Cc2cccc(NC(=O)C3CCCN(C(=O)C4CCC4)C3)c2)c1 (centres undefined) 1.49%
CN(C(=O)c1cccc(NC(=O)Cc2ccc(NC(=O)C3CCCN(C(=O)C4CC4)C3)cc2)c1)C1CC1 (centres undefined) 5.33%
C=CCN1C=C(C(=O)c2ccccc2)C(=O)CC1 1.13%
Cc1nc(Nc2ccccc2C)c2cnn(C)c2n1 0.799%
O=C(c1cccc(S(=O)(=O)N2CCCCCC2)c1)N1CCN(Cc2ccccc2)CC1 2.11%

Potency, active:
CC(C)(C)Nc1nc(-c2ccccn2)nc2ccccc12 58 µM
